Laboratory results taken from article PMC13253105, “Chemical inhibition of a CBASS anti-bacteriophage defense” (iScience, 2026).

By UniProt entry, the sequences of proteins in these tests, tags left out. Residues count along the entry.
UniProt A0A2P0QGK5, 10-397 limits assumed: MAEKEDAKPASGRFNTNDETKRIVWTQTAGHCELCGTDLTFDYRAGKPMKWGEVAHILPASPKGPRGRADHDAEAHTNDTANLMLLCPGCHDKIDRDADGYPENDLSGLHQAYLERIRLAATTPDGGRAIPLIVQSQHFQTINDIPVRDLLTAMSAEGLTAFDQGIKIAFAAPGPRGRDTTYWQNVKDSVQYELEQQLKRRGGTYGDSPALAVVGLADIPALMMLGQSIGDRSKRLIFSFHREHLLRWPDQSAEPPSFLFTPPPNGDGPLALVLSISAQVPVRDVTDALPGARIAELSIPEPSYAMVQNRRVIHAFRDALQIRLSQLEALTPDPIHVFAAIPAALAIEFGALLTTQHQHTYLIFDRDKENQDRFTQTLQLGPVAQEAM

Molecular target: PsCap5 (Pseudomonas syringae pv. actinidiae, UniProt A0A2P0QGK5)
Assay type: biochemical
Conditions: ratio of IC50s, LlCap5 vs PsCap5

## Cc1ccc(CNC(=O)c2ccc(Cn3c(=O)c4ccccc4n(CC(=O)NCc4ccco4)c3=O)cc2)cc1 [Compound 20]
  higher potency against PsCap5 compared to LlCap5: ~5 ×
